Source: PMC7880549 (Bioorganic & medicinal chemistry, 2020)

Chains of the proteins cited; added tags and fusions are not shown.
UniProt Q9Y5K5, whole entry: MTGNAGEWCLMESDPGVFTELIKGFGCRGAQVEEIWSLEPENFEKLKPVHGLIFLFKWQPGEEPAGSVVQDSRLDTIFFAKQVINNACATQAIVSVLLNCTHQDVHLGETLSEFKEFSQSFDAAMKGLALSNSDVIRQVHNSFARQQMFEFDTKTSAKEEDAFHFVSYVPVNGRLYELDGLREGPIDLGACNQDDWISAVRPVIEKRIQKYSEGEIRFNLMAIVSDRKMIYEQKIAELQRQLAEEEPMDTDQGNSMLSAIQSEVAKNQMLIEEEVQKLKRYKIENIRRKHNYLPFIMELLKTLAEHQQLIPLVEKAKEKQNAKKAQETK

Target: UCHL5 (Homo sapiens, UniProt Q9Y5K5)
Test: in vitro DUB assay with purified UCHL5 and Ub-rhodamine 110
Format: biochemical
Conditions: read-out: inhibition of UCHL5 activity

inhibition at 200 µM: 15 to 20%
SMILES: CC(C(=O)O)c1ccc(C(=O)c2ccccc2)s1 (stereo not shown) [TA, tiaprofenic acid, reference compound]
